In patent publication US20150196637A1, “METHODS AND MEANS FOR THE PRODUCTION OF IG-LIKE MOLECULES” (published 2015):
“And” between values parts separate entries of the source, which are not always exact repeats. Identical values can stand only once.

Legend:
[1] = target: IgG1 heavy chain with CH3 construct 69 (L351D, L368E) and common light chain (human) [IgG part: P01857]
[2] = target: IgG1 heavy chain with CH3 construct 2 (K392D, K409D) and common light chain (human) [IgG part: P01857]
[3] = target: IgG1 heavy chain with CH3 construct 68 (T366K, L351K) and common light chain (human) [IgG part: P01857]
[4] = target: IgG1 heavy chain with CH3 construct 69 (L351D, L368E) and common light chain (human) [IgG part: P01857]; remark: listed apart in the source

Row | Substance | % of sample [1] | % of the mixture (peak height) [2] | % bispecific IgG [3] | % of the mixture (peak height) [4]
1 | IgG1 heavy chain with CH3 construct 69 (L351D, L368E) and common light chain (from UniProt P01857-1) | 2% | 3% | > 90% | –
2 | IgG1 heavy chain with CH3 construct 68 (T366K, L351K) and common light chain (from UniProt P01857-1) | – | – | – | 30% and 33%
